The target of experiment [1] is vacuolar ATPase catalytic subunit A (ATP6V1A) (Homo sapiens, UniProt P38606). Briefly: Cellular protein labeling by probe QZ1, CuAAC with TAMRA-azide and in-gel fluorescence. To be noted: 293 cells, 100 nM QZ1, time course 1 minute to 2 hours. On the procedure:
FIG. 3. Specific labeling of a cellular protein by the probe. 293 cells were labeled by probe QZ1 for 30 min, lysed, followed by CuAAC-mediated conjugation with TAMRA-azide and in-gel fluorescence imaging.
FIG. 10. Rapid target occupancy by the probe QZ1 in cells.
All the clinically used inhibitors of epidermal growth factor receptor (EGFR) and Her2, including erlotinib, gefitinib, lapatinib, afatinib, poziotinib and dacomitinib, contain a heterocyclic core of 4-anilinoquinazoline. A series of quinazolines containing electrophiles at the 7 position to achieve covalent inhibition of protein kinases were prepared (FIG. 1). In an effort to monitor the cellular selectivity of these electrophilic quinazolines, one electrophilic quinazoline (Formula I) was derivatized with a terminal alkyne group as a reporter at the 3′ position of the anilino group (FIG. 2). […]
To determine the SAR, a series of electrophilic quinazolines synthesized were screened for ones that can inhibit the probe labeling. […] Furthermore, the time course of ATP6V1A labeling by probe QZ1 was determined. […] Immediately after bafilomycin washout, cells were treated with probe QZ1 at various concentrations, labeled with a fluorescent dye DND-99, followed by lysis and fluorescence measurement after 3 h. […]

Sequences of proteins named here, by UniProt entry; tags and fusion partners are left off. A change or cut given only in a name is not applied to a line headed by its entry.
UniProt P38606, whole entry: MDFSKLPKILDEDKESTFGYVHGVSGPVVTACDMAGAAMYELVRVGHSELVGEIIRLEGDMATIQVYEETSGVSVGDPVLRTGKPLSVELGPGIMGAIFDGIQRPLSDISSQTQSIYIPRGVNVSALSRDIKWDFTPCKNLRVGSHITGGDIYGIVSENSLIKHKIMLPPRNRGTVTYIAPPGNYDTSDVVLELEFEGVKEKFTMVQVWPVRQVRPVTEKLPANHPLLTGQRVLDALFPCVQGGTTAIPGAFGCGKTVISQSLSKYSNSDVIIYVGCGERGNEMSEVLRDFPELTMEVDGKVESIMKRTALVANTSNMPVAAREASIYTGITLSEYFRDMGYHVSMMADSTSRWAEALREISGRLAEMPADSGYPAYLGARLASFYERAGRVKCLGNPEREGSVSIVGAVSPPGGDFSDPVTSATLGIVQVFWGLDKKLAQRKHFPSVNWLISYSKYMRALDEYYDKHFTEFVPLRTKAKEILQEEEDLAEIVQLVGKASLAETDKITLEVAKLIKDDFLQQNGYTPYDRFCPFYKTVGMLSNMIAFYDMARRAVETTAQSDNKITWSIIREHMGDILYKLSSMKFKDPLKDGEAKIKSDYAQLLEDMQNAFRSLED
UniProt P38606, whole entry C138S: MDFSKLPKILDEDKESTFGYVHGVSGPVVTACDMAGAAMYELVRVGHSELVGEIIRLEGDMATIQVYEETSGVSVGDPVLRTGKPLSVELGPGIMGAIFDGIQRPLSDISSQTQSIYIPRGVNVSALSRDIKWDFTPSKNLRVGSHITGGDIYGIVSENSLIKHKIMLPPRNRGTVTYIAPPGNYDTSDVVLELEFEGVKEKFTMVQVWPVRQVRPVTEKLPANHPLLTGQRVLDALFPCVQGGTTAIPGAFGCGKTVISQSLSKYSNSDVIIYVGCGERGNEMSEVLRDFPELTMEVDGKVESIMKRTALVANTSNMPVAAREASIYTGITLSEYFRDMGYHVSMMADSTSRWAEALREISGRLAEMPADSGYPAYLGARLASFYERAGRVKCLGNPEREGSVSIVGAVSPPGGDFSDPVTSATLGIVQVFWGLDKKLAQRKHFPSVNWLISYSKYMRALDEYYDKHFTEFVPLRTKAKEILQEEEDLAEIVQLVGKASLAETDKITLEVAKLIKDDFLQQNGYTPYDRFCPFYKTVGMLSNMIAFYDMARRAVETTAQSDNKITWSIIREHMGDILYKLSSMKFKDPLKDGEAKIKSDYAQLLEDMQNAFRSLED

Experiment [2] has as its target human ATP6V1A C138S (Homo sapiens, UniProt P38606, C138S). Briefly: Probe labeling of 3×FLAG-tagged ATP6V1A with cysteine 138 to serine mutation in transfected 293 cells. To be noted: 293 cells transfected with 3×FLAG-tagged human ATP6V1A. On the procedure:
FIG. 11. Identification of probe modification site in ATP6V1A. Top panel is an in-gel fluorescence image and bottom is a western blot.
(§1) To determine the SAR, a series of electrophilic quinazolines synthesized were screened for ones that can inhibit the probe labeling. Bafilomycin A1, a known V-ATPase inhibitor targeting V0 domain, was included as a control in the screen. […] To measure the potency of Formula I at inhibiting ATP6V1A labeling by QZ1, 293 cells were first incubated with Formula I for 30 minutes, and then the cells were washed twice with PBS followed by probe addition. […] Furthermore, the time course of ATP6V1A labeling by probe QZ1 was determined. 293 Cells were treated with 100 nM of QZ1 for various lengths of time (ranging from 1 minute to 2 hours). At 5 minutes, intense labeling (close to saturation) of ATPase was observed (FIG. 10). […] To test if probe QZ1 affects V-ATPase function, the probe was applied to a pH recovery assay to study V-ATPase inhibition in cells, which involves pre-treatment with bafilomycin and measuring vesicle re-acidification after it has been washed off. Immediately after bafilomycin washout, cells were treated with probe QZ1 at various concentrations, labeled with a fluorescent dye DND-99, followed by lysis and fluorescence measurement after 3 h. Probe QZ1 inhibited vesicle re-acidification with an apparent IC50 value of 30 nM (FIG. 12).

The target of experiment [3] is V-ATPase (Homo sapiens, UniProt P38606). Kind of experiment: pH recovery assay: vesicle re-acidification after bafilomycin washout. To be noted: read-out: apparent IC50 for inhibition of vesicle re-acidification; probe added after bafilomycin washout, DND-99 dye, fluorescence measured after 3 h. On the procedure: FIG. 12. Effects of QZ1 on V-ATPase re-acidification.
as §1

Structures are written as SMILES.

Results on 1 compound are retold here after patent publication US10047058B2, “Compounds and methods for inhibiting vacuolar ATPase” (University of Southern California, priority 2015, dated 2018).

As usually defined, the IC50 is the midpoint of a concentration-inhibition curve.

Turning to `C#Cc1cccc(Nc2ncnc3cc(NC(=O)CCl)ccc23)c1`, the “time at which intense labeling (close to saturation) of ATPase was observed” value in experiment [1] was 5 min. The “effect of mutation of cysteine 138 to serine in ATP6V1A on probe labeling” value in experiment [2] is reported as “abolished probe labeling”. Further, the concentration for half-maximal inhibition (IC50) in experiment [3] came out at 30 nM.
